Literature values in paper PMC5558795 (Antiviral research, 2017).

Protein sequences, listed by entry. Tags and fused reporters are not part of them. Residues count along the entry.
UniProt Q9Q6P4, 1506-1683: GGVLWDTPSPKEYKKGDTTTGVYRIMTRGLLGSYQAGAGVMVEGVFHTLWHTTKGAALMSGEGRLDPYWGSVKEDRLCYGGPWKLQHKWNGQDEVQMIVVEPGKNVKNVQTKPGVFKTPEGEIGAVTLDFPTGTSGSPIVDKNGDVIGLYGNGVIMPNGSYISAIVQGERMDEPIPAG
UniProt Q9Q6P4, 1428-1467: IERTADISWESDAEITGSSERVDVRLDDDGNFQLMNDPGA

Target: WNV NS2B-NS3pro (West Nile virus, UniProt Q9Q6P4)
Conditions: read-out: IC50, WNV NS2B-NS3pro; ref Shiryaev et al., 2006; cited from earlier work

Substance: aprotinin
- IC50: 0.02 µM
